{
  "source": "paper PMC11847841",
  "about": "“The development and evaluation of a tublysine-based antibody-drug conjugate with enhanced tumor therapeutic efficacy” (Frontiers in Pharmacology, 2025)",
  "key": {"[1]": {"tested_on": "HER2-positive SK-BR-3 cells", "experiment": "In vitro endocytosis into SK-BR-3 cells", "type": "cell-based, human", "protocol": "(§1) BT-474 and SK-BR-3 cells were cultured to the exponential growth phase, harvested, and washed with pre-cooled PBS. […] Alexa Fluor 488-conjugated goat anti-human IgG (H + L) secondary antibody (10 μg/mL; Invitrogen, Shanghai, China) was subsequently added, and the cells were incubated on ice for 30 min. After additional washes, the cells were resuspended in pre-cooled PBS, divided into five aliquots, and incubated at 37°C for 0, 10, 30, 90, or 120 min. At each time point, cells were further split into two sub-aliquots: one treated with Trypan Blue to quench extracellular fluorescence and the other with PBS as an unquenched control. Fluorescence intensity was measured using a flow cytometer (Guava, Merck Millipore). The percentage of endocytosis was calculated as the ratio of quenched to unquenched fluorescence multiplied by 100%."}, "[2]": {"tested_on": "SK-BR-3 (HER2 positive cell)", "experiment": "Flow cytometry binding to SK-BR-3 cells", "parameters": "species or system human", "protocol": "(§2) BT-474, SK-BR-3, and MDA-MB-468 cells were cultured to the exponential growth phase, detached with 0.25% trypsin, and resuspended in 2% FBS-PBS. A total of 200 μL of the cell suspension (5 × 10^4 cells per well) was seeded into 96-well plates, centrifuged at 4°C, 2,000 rpm for 1 min, and the supernatant was carefully aspirated. DX-CHO9 and Herceptin were diluted in 2% FBS-PBS to final concentrations ranging from 50 to 0.0005 μg/mL. Two hundred microliters of each dilution was added to the wells, and the plates were incubated at 4°C for 100 min. The plates were then centrifuged at 4°C, 2,000 rpm for 1 min, followed by two washes with 2% FBS-PBS. Subsequently, a PE-labeled secondary anti-human IgG antibody (200 μL per well; Santa Cruz Biotechnology) was added, and the plates were incubated at 4°C for 40 min. After two additional washes with 2% FBS-PBS, fluorescence signals were detected using a flow cytometer (Guava, Merck Millipore). Data analysis was conducted using Guava Soft 3.1.1 software."}, "[3]": {"tested_on": "HER2-positive BT-474 cells", "experiment": "In vitro endocytosis into BT-474 cells", "type": "cell-based, human", "protocol": "as §1"}, "[4]": {"tested_on": "BT-474 (HER2 positive cell)", "experiment": "Flow cytometry binding to BT-474 cells", "parameters": "species or system human", "protocol": "as §2"}, "[5]": {"tested_on": "BT-474 human breast cancer xenografts", "experiment": "BT-474 xenograft efficacy study", "type": "in vivo, BALB/c nude mice", "details": "BT-474 model, 10 mg/kg single i.v."}, "[6]": {"details": "human, in vivo; cited from earlier work"}, "[7]": {"tested_on": "NCI-N87 human gastric cancer xenografts", "experiment": "NCI-N87 xenograft efficacy study", "type": "in vivo, BALB/c nude mice", "details": "for T/C%: NCI-N87 model (Fig 3D, n = 5)"}},
  "data": [
    {"substance": "Herceptin: Herceptin (Roche), purchased from a local pharmacy; anti-HER2 antibody comparator", "values": [
      {"measurement": "Endocytosis Efficiency", "setting": "[1]; SK-BR-3, incubation time 0 min", "result": 10.1, "unit": "%"},
      {"measurement": "Endocytosis Efficiency", "setting": "[1]; SK-BR-3, incubation time 10 min", "result": 13.6, "unit": "%"},
      {"measurement": "Endocytosis Efficiency", "setting": "[1]; SK-BR-3, incubation time 30 min", "result": 18.8, "unit": "%"},
      {"measurement": "Endocytosis Efficiency", "setting": "[1]; SK-BR-3, incubation time 90 min", "result": 35, "unit": "%"},
      {"measurement": "Endocytosis Efficiency", "setting": "[1]; SK-BR-3, incubation time 120 min", "result": 37.4, "unit": "%"},
      {"measurement": "Kd", "setting": "[2]", "result": 0.07867, "unit": "µg/mL"},
      {"measurement": "Endocytosis Efficiency", "setting": "[3]; BT-474, incubation time 0 min", "result": 11.3, "unit": "%"},
      {"measurement": "Endocytosis Efficiency", "setting": "[3]; BT-474, incubation time 10 min", "result": 30, "unit": "%"},
      {"measurement": "Endocytosis Efficiency", "setting": "[3]; BT-474, incubation time 30 min", "result": 36, "unit": "%"},
      {"measurement": "Endocytosis Efficiency", "setting": "[3]; BT-474, incubation time 90 min", "result": 41.8, "unit": "%"},
      {"measurement": "Endocytosis Efficiency", "setting": "[3]; BT-474, incubation time 120 min", "result": 39.9, "unit": "%"},
      {"measurement": "Kd", "setting": "[4]", "result": 0.1365, "unit": "µg/mL"},
      {"measurement": "T/C%", "setting": "[5]", "result": 38.8, "unit": "%"}
    ]},
    {"substance": "trastuzumab deruxtecan [Enhertu]", "values": [
      {"measurement": "ILD/pneumonitis incidence", "setting": "[6]", "result": 13.6, "unit": "%"},
      {"measurement": "Complete tumor regression (animals)", "setting": "[7]; NCI-N87 model (Fig 3D), 6 mg/kg", "result": "five out of five animals"},
      {"measurement": "T/C%", "setting": "[7]; 1.5 mg/kg", "result": 30.8, "unit": "%"},
      {"measurement": "T/C%", "setting": "[7]; 6 mg/kg", "result": 0, "unit": "%"}
    ]}
  ]
}
